# Source: ChEMBL document CHEMBL1157769, “Synthesis and opioid activity of novel 6-substituted-6-demethoxy-ethenomorphinans” (2010)
# Sequences of proteins named here, by UniProt entry; tags and fusion partners are left off.
# UniProt P33533, whole entry: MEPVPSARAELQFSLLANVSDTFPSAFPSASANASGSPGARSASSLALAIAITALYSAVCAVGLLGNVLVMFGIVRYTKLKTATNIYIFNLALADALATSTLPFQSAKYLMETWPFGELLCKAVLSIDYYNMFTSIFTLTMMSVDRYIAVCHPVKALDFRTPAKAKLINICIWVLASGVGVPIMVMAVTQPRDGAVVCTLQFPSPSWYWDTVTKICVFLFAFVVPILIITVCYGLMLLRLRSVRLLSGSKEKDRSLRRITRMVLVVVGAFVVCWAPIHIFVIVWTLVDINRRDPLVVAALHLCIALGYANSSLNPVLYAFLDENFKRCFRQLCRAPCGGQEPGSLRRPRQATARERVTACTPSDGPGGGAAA
# Target: Delta-type opioid receptor (Rattus norvegicus, UniProt P33533)
# Test: Displacement of [3H]deltorphin-2 from delta opioid receptor from Wistar rat brain by liquid scintillation counting
compound,measurement,value
CO[C@]12C=C[C@@]3(C[C@@H]1C(C)(C)C)[C@H]1Cc4ccc(O)c5c4[C@@]3(CCN1C)[C@H]2O5,IC50,1.35 µM
